{
  "source": "patent US12168639B2",
  "about": "(priority 2013, dated 2024)",
  "key": {"[1]": {"test_system": "Isolated mitochondria from liver", "assay": "Mitochondrial respiration (uncoupling) in isolated liver mitochondria", "type": "cell-based, rat", "settings": "0, 3.125, 6.25, and 12.5 μM"}, "[2]": {"test_system": "rats fed a high-fat diet and sucrose supplemented (5%) drinking water", "assay": "Liver TAG dose finding in rats fed high-fat diet and sucrose water", "type": "in vivo, rat"}, "rats [3]": {"test_system": "rats", "assay": "Acute toxicity: rectal temperature and survival after IP injection"}, "[4]": {"test_system": "intracellular energy charge in liver and skeletal muscle", "assay": "Tissue energetics and AMPK/ACC phosphorylation in liver and quadriceps", "settings": "therapeutic dose; 5 day DNPME-treated rats", "description": "Livers from rats sacrifice by decapitation were isolated within 15 seconds, and quadriceps muscle within 40 seconds. ˜50 mg of tissue were homogenized in a buffer of 50% methanol, 10 μM EDTA, 2 mM ammonium acetate, and 20 μM taurine-d4. Following a 20 minute spin at 20,000 rcf and 4° C., the supernatant was kept on ice for 20 min, then spun again at 16,000 rcf in filter tubes for 5 min. The flow-through was separated on a C18 5 μm 100 Å 4.6×100 mm column (Phenomenex, Torrance, CA) before ionization for multiple reaction monitoring (MRM) analysis by LC/MS/MS (Applied Biosystems/MDS SCIEX, 5000 Q-TRAP). Each analyte was eluted isocratically in 12 uM ammonium formate/5% methanol at a flow rate of 400 μl/min. Individual ion pairs were designated for each analyte, and the relative concentrations were determined by manual integration."}, "[5]": {"test_system": "Isolated mitochondria from brain", "assay": "Mitochondrial respiration (uncoupling) in isolated brain mitochondria", "type": "cell-based, rat", "settings": "0, 3.125, 6.25, and 12.5 μM"}, "rat model of NAFLD": {"test_system": "rat model of NAFLD", "assay": "NAFLD reversal study (5 days DNPME in high fat/sucrose fed rats)", "description": "Rats used for the studies to determine whether DNPME could prevent the development of NAFLD were fed high fat diet and sucrose water for 2 weeks, during which time they were concurrently injected with daily 5 mg/kg IP doses of DNPME in 100% DMSO (250 μl/kg body weight) or vehicle. Rats used for the NAFLD reversal studies were fed high a fat diet and sucrose water for 1 week, then were given daily injections of DNPME or vehicle for 5 days while continuing the high fat diet and sucrose water. To measure caloric intake, the volume of water and weight of food consumed each day were measured, and calorie content was calculated using the known composition of each item.\nFollowing an overnight fast, rats with a jugular venous line were injected with a 1 g/kg intraperitoneal bolus of 50% dextrose. Blood samples were taken through the venous line before and 5, 10, 20, 30, 45, 60, and 90 min after the dextrose injection. Plasma glucose was measured enzymatically on the YSI Life Sciences 2700 Select Biochemistry Analyzer (Yellow Springs, OH), and plasma insulin was measured by radioimmunoassay. Area under the curve was measured from time point A to subsequent time point B according to the following formula: […]\nHyperinsulinemic-englycemic clamps were performed and basal and insulin-stimulated glucose turnover were measured using [6,6]^2H glucose (Erion et al., 2013, Endocrinology 154:36-44). To measure insulin-stimulated glucose uptake in heart and quadriceps muscle, [^14C]2-deoxyglucose was injected at the conclusion of the clamp, and tissues processed (Samuel et al., 2007, J. Clin. Invest. 117:739-745).\nPKCε translocation in liver and PKCO translocation in muscle from 6-hour fasted rats in the NAFLD treatment study were measured by Western blot (Choi et al., 2007, Proc. Natl. Acad. Sci. USA 104:16480-16485).\nTriacylglycerol (TAG) in liver and quadriceps muscle were extracted (Bligh & Dyer, 1959, Can. J. Biochem. Physiol. 37:911-917) and measured spectrophotometrically with Diagnostic Chemicals triglyceride reagent (Diagnostic Chemicals Ltd [DCL], Charlottetown, Canada). Liver and quadriceps diacylglycerol (DAG) were extracted by homogenization in a buffer containing 20 mM Tris-HCl, 1 mM EDTA, 0.25 mM EGTA, 250 mM sucrose, 2 mM phenylmethylsulfonyl fluoride, and a protease inhibitor mixture (Roche, Indianapolis, Indiana). The cytosolic fragment was isolated from the supernatant after high speed centrifugation for 1 hour. Diacylglycerol (DAG) and ceramide content was measured by liquid chromatography/mass spectrometry/mass spectrometry (Bligh & Dyer, 1959, Can. J. Biochem. Physiol. 37:911-917).\nTo measure liver triglyceride export, 300 mg/kg of a lipoprotein lipase (LPL) inhibitor, Poloxamer 407 (Sigma, St. Louis, MO) was injected, and plasma was sampled at time 0, 1, 2, 3, and 4 hours after treatment. Plasma triglyceride concentration was measured using the DCL triglyceride reagent. […] Thus, the slope of the least-squares regression of the graph of plasma triglyceride concentration versus time (Microsoft Excel, Redmond, WA) was considered to be the TAG export rate. Tissue ceramide content was measured by LC/MS/MS (Yu et al., 2002, J. Biol. Chem. 277:50230-50236).\nHepatic glycogen content was assessed by amyloglucosidase digestion (Passonneau & Lauderdale, 1974, Anal. Biochem. 60:405-412).\nPlasma concentrations of twelve inflammatory markers were measured by ELISA (QIAGEN, Valencia, CA). Adiponectin was measured by ELISA. Lactate was measured by COBAS, and FGF-21 by ELISA (Millipore)."}, "mice": {"test_system": "mice", "assay": "Metabolic cage (CLAMS) studies", "settings": "5 mg/kg per day IP", "description": "Mice were studied during daily IP injections of 5 mg/kg DNPME or vehicle. Comprehensive Animal Metabolic Monitoring System (Columbus Instruments, Columbus, OH) was used to measure oxygen uptake and carbon dioxide production, daily caloric intake and energy expenditure, respiratory exchange ratio, and activity throughout the day."}, "[6]": {"test_system": "whole-cell brain preparations", "assay": "Uncoupling in whole-cell brain preparations", "type": "cell-based"}, "rats [7]": {"test_system": "rats", "settings": "five days of daily treatment"}, "rats [8]": {"test_system": "rats", "assay": "Rats treated with vehicle or DNPME (FIGS. 20, 21, 23)"}, "[9]": {"settings": "acute, DNP at doses above 10 mg/kg, DNPME up to 200 mg/kg"}},
  "note": "Some compounds may have been tested in ways that are not shown here.",
  "data": [
    {"smiles": "COc1ccc([N+](=O)[O-])cc1[N+](=O)[O-]", "values": [
      {"measurement": "mitochondrial uncoupling (oxygen consumption)", "setting": "[1]", "result": "uncoupling of liver"},
      {"measurement": "lowest dose effective at lowering liver TAG", "setting": "[2]; daily dose, 5 days", "result": 5, "unit": "mg/kg"},
      {"measurement": "daily doses effective at reducing hepatic triglyceride accumulation", "setting": "[2]; five days of daily treatment, high-fat diet and 5% sucrose water", "result": "above 2.5 mg/kg"},
      {"measurement": "mortality acutely after IP injection", "setting": "rats [3]; [9]", "result": "no such effects"},
      {"measurement": "rectal temperature after IP injection", "setting": "rats [3]; [9]", "result": "no such effects"},
      {"measurement": "dose up to which no increase in rectal temperature or mortality occurred", "setting": "rats [3]; single IP injection", "result": "up to 200 mg/kg"},
      {"measurement": "ATP/AMP, ATP/ADP or NADH/NAD+ ratios in liver and skeletal muscle", "setting": "[4]", "result": "no differences"},
      {"measurement": "phosphorylation of hepatic AMPK or acetyl CoA carboxylase (ACC)", "setting": "[4]", "result": "no differences"},
      {"measurement": "mitochondrial uncoupling (oxygen consumption)", "setting": "[5]", "result": "not brain"},
      {"measurement": "fasting plasma glucose", "setting": "rat model of NAFLD; 5 days daily DNPME vs vehicle", "result": "lower"},
      {"measurement": "fasting plasma insulin", "setting": "rat model of NAFLD; 5 days daily DNPME vs vehicle", "result": "lower"},
      {"measurement": "fasting plasma triglyceride", "setting": "rat model of NAFLD; 5 days daily DNPME vs vehicle", "result": "lower"},
      {"measurement": "reduction in liver TAG export", "setting": "rat model of NAFLD; Poloxamer 407, vs vehicle", "result": 50, "unit": "%"},
      {"measurement": "hepatic and peripheral insulin sensitivity", "setting": "rat model of NAFLD; clamp, vs vehicle", "result": "marked improvement"},
      {"measurement": "insulin-stimulated glucose uptake in skeletal muscle", "setting": "rat model of NAFLD; clamp, vs vehicle", "result": "more than two-fold increase"},
      {"measurement": "NAFLD", "setting": "rat model of NAFLD; high fat fed rats", "result": "reverses"},
      {"measurement": "basal hepatic glucose production", "setting": "rat model of NAFLD; high fat fed rats", "result": "corrects"},
      {"measurement": "glucose infusion rate required to maintain euglycemia", "setting": "rat model of NAFLD; hyperinsulinemic-euglycemic clamp, vs vehicle", "result": "greater than three-fold increase"},
      {"measurement": "cardiac glucose uptake", "setting": "rat model of NAFLD; insulin resistant rodent model of NAFLD", "result": "increases"},
      {"measurement": "PKCε translocation in liver", "setting": "rat model of NAFLD; vs vehicle", "result": "reduced"},
      {"measurement": "PKCθ translocation in muscle", "setting": "rat model of NAFLD; vs vehicle", "result": "reduced"},
      {"measurement": "glucose tolerance (plasma glucose and insulin in intraperitoneal glucose tolerance test)", "setting": "rat model of NAFLD; vs vehicle", "result": "much more glucose tolerant"},
      {"measurement": "reduction in basal endogenous glucose production", "setting": "rat model of NAFLD; vs vehicle", "result": 20, "unit": "%"},
      {"measurement": "reduction in liver TAG", "setting": "rat model of NAFLD; vs vehicle", "result": "40-50%"},
      {"measurement": "reduction in liver diacylglycerol (DAG) content", "setting": "rat model of NAFLD; vs vehicle", "result": "40-50%"},
      {"measurement": "reduction in muscle TAG", "setting": "rat model of NAFLD; vs vehicle", "result": "40-50%"},
      {"measurement": "reduction in muscle diacylglycerol (DAG) content", "setting": "rat model of NAFLD; vs vehicle", "result": "40-50%"},
      {"measurement": "whole body oxygen consumption, carbon dioxide production, energy expenditure, respiratory quotient, or activity", "setting": "mice", "result": "No effects"},
      {"measurement": "uncoupling", "setting": "[6]", "result": "neither DNP nor DNPME was found to uncouple"},
      {"measurement": "daily doses with no appreciable hepatic or renal toxicity", "setting": "rats [7]", "result": "below 50 mg/kg"},
      {"measurement": "visceral fat and hepatic steatosis", "setting": "rats [8]; DNPME vs vehicle, photograph", "result": "visible reductions"},
      {"measurement": "peripheral glucose uptake", "setting": "rats [8]; rat, in vivo", "result": "increases"}
    ]}
  ]
}
